Assays:
Assay in all cases: biochemical
Settings in all cases: read-out: % remaining activity
[1] = target: AKT2 (Homo sapiens, UniProt P31751)
[2] = target: T1, ASK1 (Homo sapiens, UniProt Q99683)
T1 construct: gene MAP3K5

[3] = target: BRSK1 (Homo sapiens, UniProt Q8TDC3)
[4] = target: BRSK2 (Homo sapiens, UniProt Q8IWQ3)
[5] = target: BTK (Homo sapiens, UniProt Q06187)
[6] = target: CDC7/DBF4 (Homo sapiens, UniProt O00311)
[7] = target: CDK1/cyclin A (Homo sapiens, UniProt P06493)
[8] = target: CDK7/cyclin H (Homo sapiens, UniProt P50613)
[9] = target: T2, CHK1 (Homo sapiens, UniProt O14757)
T2 construct: gene CHEK1

[10] = target: T3, CK1g1 (Homo sapiens, UniProt Q9HCP0)
T3 construct: gene CSNK1G1

[11] = target: EPHA3 (Homo sapiens, UniProt P29320)
[12] = target: EPHA4 (Homo sapiens, UniProt P54764)
[13] = target: FER (Homo sapiens, UniProt P16591)
[14] = target: FLT3 (Homo sapiens, UniProt P36888)
[15] = target: GRK6 (Homo sapiens, UniProt P43250)
[16] = target: IGF1R (Homo sapiens, UniProt P08069)
[17] = target: T4, LOK (Homo sapiens, UniProt O94804)
T4 construct: gene STK10

[18] = target: MAP4K1 (Homo sapiens, UniProt Q92918)
[19] = target: MAP4K4 (Homo sapiens, UniProt O95819)
[20] = target: MARK1 (Homo sapiens, UniProt Q9P0L2)
[21] = target: T5, MLK2 (Homo sapiens, UniProt Q02779)
T5 construct: gene MAP3K10

[22] = target: MYO3b (Homo sapiens, UniProt Q8WXR4)
[23] = target: NEK9 (Homo sapiens, UniProt Q8TD19)
[24] = target: PAK2 (Homo sapiens, UniProt Q13177)
[25] = target: PDGFRb (Homo sapiens, UniProt P09619)
[26] = target: PDPK1 (Homo sapiens, UniProt O15530)
[27] = target: PHKg1 (Homo sapiens, UniProt Q16816)
[28] = target: T6, PKAcb (Homo sapiens, UniProt P22694)
T6 construct: gene PRKACB

[29] = target: T7, PYK2 (Homo sapiens, UniProt Q14289)
T7 construct: gene PTK2B

[30] = target: T8, RIPK5 (Homo sapiens, UniProt Q6XUX3)
T8 construct: gene DSTYK

[31] = target: ROCK1 (Homo sapiens, UniProt Q13464)
[32] = target: T9, RSK3 (Homo sapiens, UniProt Q15349)
T9 construct: gene RPS6KA2

[33] = target: SGK2 (Homo sapiens, UniProt Q9HBY8)
[34] = target: T10, SSTK (Homo sapiens, UniProt Q9BXA6)
T10 construct: gene TSSK6

[35] = target: STK39 (Homo sapiens, UniProt Q9UEW8)
[36] = target: T11, VEGFR2 (Homo sapiens, UniProt P35968)
T11 construct: gene KDR

`COc1cc(-c2nn(CCN3CCC(N(C)C)CC3)c3ncnc(N)c23)ccc1NC(=O)OC(C)(C)C` [eCF506] showed a remaining activity at 1 µM [1] of 101%, a remaining activity at 1 µM [2] of 99.6% and a remaining activity at 1 µM [3] of 115%. For the same molecule, the remaining activity at 1 µM [4] was 96.4%, the remaining activity at 1 µM [5] was 3.8% and the remaining activity at 1 µM [6] was 107%. It also gave a remaining activity at 1 µM [7] of 97.1%, a remaining activity at 1 µM [8] of 102% and a remaining activity at 1 µM [9] of 99.7%. It also gave a remaining activity at 1 µM [10] of 99.2%, a remaining activity at 1 µM [11] of 105% and a remaining activity at 1 µM [12] of 106%. It also gave a remaining activity at 1 µM [13] of 108%, a remaining activity at 1 µM [14] of 96.8% and a remaining activity at 1 µM [15] of 102%. The remaining activity at 1 µM [16] was 101%, the remaining activity at 1 µM [17] was 104% and the remaining activity at 1 µM [18] was 99.8%. The remaining activity at 1 µM [19] was 97.3%, the remaining activity at 1 µM [20] was 100% and the remaining activity at 1 µM [21] was 97.3%. The remaining activity at 1 µM [22] was 105%, the remaining activity at 1 µM [23] was 97.1% and the remaining activity at 1 µM [24] was 71.2%. For the same molecule, the remaining activity at 1 µM [25] was 104%, the remaining activity at 1 µM [26] was 97.5% and the remaining activity at 1 µM [27] was 98.5%. For the same molecule, the remaining activity at 1 µM [28] was 74.3%, the remaining activity at 1 µM [29] was 100% and the remaining activity at 1 µM [30] was 110%. It also gave a remaining activity at 1 µM [31] of 110%, a remaining activity at 1 µM [32] of 103% and a remaining activity at 1 µM [33] of 106%. The remaining activity at 1 µM [34] was 103%, the remaining activity at 1 µM [35] was 99.2% and the remaining activity at 1 µM [36] was 120%.
